Experimental findings from PubChem BioAssay AID652083 (The Scripps Research Institute Molecular Screening Center, 2013) are described below.

This is one part of the list. Active and inactive are the calls of the source.

The assay has as its system Adrenergic alpha 1 (non-selective). Nature of the assay: PubChem AID 652083. The conditions noted are these: CEREP radioligand binding panel, % inhibition at 10 uM, active compounds read high.

With `COC(=O)c1cc(Br)cnc1N1CCC(NC2CCCCC2)C(O)C1` (stereo unspecified), the inhibition of specific binding was inactive: 1%.
